The values that follow are results of earlier work, collected in US10028966B2 (Avalyn Pharma Inc., priority 2014, dated 2018).

The conditions of the data set: CFC MDI, 2 mg per puff, healthy volunteers; cited from earlier work.

For the substance L-lysine-N-acetylcysteinate [NAL], the “fraction of dose able to reach the lungs” value is recorded as “approximately 10%”.
